Laboratory results published in patent EP0942911B1, “BENZOPYRANOPYRROLE AND BENZOPYRANOPYRIDINE ALPHA-1 ADRENERGIC COMPOUNDS” (Abbott Laboratories, priority 1996, dated 1998).

Tested on: α-1 Adrenoceptors
Experiment: Functional antagonism in rat aorta (method not described)
Type: cell-based

SMILES: COc1cc2nc(N3CCN(C(=O)C4COc5ccccc5O4)CC3)nc(N)c2cc1OC (stereo not shown) [Doxazosin, doxazosin, reference compound]
- In Vitro Characterization (pA2) Rat Aorta: 8.97
